## scFv variants of Ab-14 (heavy chain) against a SARS-CoV-2 spike peptide

Target: peptide PDVDLGDISGINAS, taken from heptad repeat 2 (HR2) of SARS-CoV-2 spike.

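The parent was found by panning a naive human phage display library on the peptide. Variants in AAYL49 differ from the parent at up to three CDR positions; double and triple changes were sampled at random. Affinity was read by AlphaSeq, a pooled yeast mating assay with surface-displayed partners. Mating (16 h, 30 °C) was followed by selection of diploids and sequencing of their barcodes. Each replicate has its own calibration line, from reference interactions of the BCL2 family. The assay was run in three technical replicates.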

The variants keep the light chain, the linker and the frameworks of Ab-14 (scFv order VH, the linker GGGGSGGGGSGGGGS, VL).
VH: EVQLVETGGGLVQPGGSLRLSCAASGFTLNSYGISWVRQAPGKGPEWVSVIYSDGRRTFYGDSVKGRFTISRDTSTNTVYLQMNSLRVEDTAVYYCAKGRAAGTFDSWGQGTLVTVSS
VL: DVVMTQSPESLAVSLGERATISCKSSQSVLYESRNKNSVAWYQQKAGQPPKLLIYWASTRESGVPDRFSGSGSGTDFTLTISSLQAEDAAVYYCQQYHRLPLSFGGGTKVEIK

Each variant is given by its three heavy chain CDRs, as the data file delimits them; those of the parent are GFTLNSYGIS, VIYSDGRRTFYGDSVK, GRAAGTFDS. Every variant below is changed at R100 of the VH (sequential numbering). Each Kd is an estimate from the mating assay, the geometric mean of the replicates in which the pair was seen; lower is stronger. An entry "nd" has no value in the source: the pair was not observed among the diploids in any replicate. This suggests poor binding but is not conclusive. Background: pairings of library AAYL49 with three empty control strains gave a value in 15% of cases (median 11 µM, 5th percentile 680 nM). Values in that range, when seen in few replicates, are hard to tell from nonspecific mating. The control count says in how many pairings with the empty strains this scFv gave a signal.

Variant GFTLNSYGIS | VAYSDGRRTFYGKSVK | GTAAGTFDS showed nd (0 of 3 replicates; controls 0 of 9). With GMTLYSYGIS | VIYSDGRRTFYGDSVK | GSAAGTFDS the result was 49 nM (3 of 3 replicates; controls 0 of 9). For GFTLNSYGIS | VIYSDGRRTFYGMSVK | GTAAGTFSS, the assay gave nd (0 of 3 replicates; controls 0 of 9). Variant GQTLNSYGIS | VIYSDGRRTFYGDIVK | GKAAGTFDS gave 100 µM (1 of 3 replicates; controls 1 of 9). For GTWLNSYGIS | VIYSDGRRTFYGDSVK | GIAAGTFDS, the assay gave 6.5 µM (3 of 3 replicates; controls 0 of 9). For GFTLNSYGIS | VIYKDGRRTFMGDSVK | GVAAGTFDS, the assay gave nd (0 of 3 replicates; controls 0 of 9). Variant GFTLVSYGIS | VIYSDGRRTFYGDSVK | GAAAGTFDS gave nd (0 of 3 replicates; controls 0 of 9).

Variant GFTLNSYGIS | HIYSDGRRTFYGDSVK | GTAAGTFWS showed nd (0 of 3 replicates; controls 0 of 9). Variant GFTLNSYGIS | VIYSDGRRTFYGDSVK | GPALGTFDS showed 14 µM (1 of 3 replicates; controls 1 of 9). For GFTLNSYGIS | VIYSDGRRTFYGDSPK | GKAAGTFDS, the assay gave nd (0 of 3 replicates; controls 0 of 9). For GFTQNSYGIS | VIYSDGDRTFYGDSVK | GWAAGTFDS, the assay gave nd (0 of 3 replicates; controls 2 of 9). With GFTLNSYGIK | VIYSDGRRTFYGDSVK | GVAAGTFRS the result was 15 µM (1 of 3 replicates; controls 1 of 9). With GFTLNSYGIS | VIYSDGRRTSYGDVVK | GSAAGTFDS the result was 7.6 µM (1 of 3 replicates; controls 1 of 9). With GFTLNSYGIS | VIVSDGRRTFYGDSYK | GNAAGTFDS the result was nd (0 of 3 replicates; controls 0 of 9).

With GFTLNSYGKS | VIYSDGRRTFYGDSVK | GLAAGTFDS the result was nd (0 of 3 replicates; controls 1 of 9). For GFTLNSQGIS | VIYSDGRNTFYGDSVK | GIAAGTFDS, the assay gave 6.3 µM (3 of 3 replicates; controls 3 of 9). Variant GFTLNSYGIS | VTYSDGRRTFYGDSVK | GAAAGTFDS gave nd (0 of 3 replicates; controls 0 of 9). Variant GFTLNSYGIS | VIYSDGWRTFYGDSVK | GEAAGTFDS gave nd (0 of 3 replicates; controls 1 of 9). With GDTWNSYGIS | VIYSDGRRTFYGDSVK | GYAAGTFDS the result was 73 µM (2 of 3 replicates; controls 4 of 9). Variant GFTLNSYGIS | VIYSDGRRTFYGDSVK | GYAAGTFDS showed 56 nM (3 of 3 replicates; controls 1 of 9). For GFTLNSYEIS | VIYSDGRRTFYGDSVK | GQAAGTFDM, the assay gave nd (0 of 3 replicates; controls 0 of 9).

Variant GFTLASYGIS | VIYSDGRRTFYGHSVK | GYAAGTFDS showed 150 nM (3 of 3 replicates; controls 0 of 9). With GFTLNSYGIS | VIYSDGRRTFYGDSYK | GQAAGTFDS the result was 3.2 nM (3 of 3 replicates; controls 0 of 9). With GFTLNSYGIS | VIYSDGRRQFYGDSVS | GEAAGTFDS the result was 15 nM (3 of 3 replicates; controls 2 of 9). Variant GFTLNSYGIS | VICSDGRRTFPGDSVK | GIAAGTFDS showed nd (0 of 3 replicates; controls 1 of 9). With GFTLNSYGIS | VIYSDGRRTFYGDSVQ | GCRAGTFDS the result was 160 nM (3 of 3 replicates; controls 2 of 9). Variant SFTLNSYGIS | VIYSDGRRTFYGDAVK | GDAAGTFDS gave 37 nM (3 of 3 replicates; controls 0 of 9). With GFTNNSYGIS | VIYSTGRRTFYGDSVK | GAAAGTFDS the result was nd (0 of 3 replicates; controls 0 of 9).

Variant GFTLNSYGIS | VIYSDGRRTFYGDSVK | GWAAGTFDS showed 4.1 nM (3 of 3 replicates; controls 4 of 9). Variant GLTLNSYGIS | VIYSDGRRTFYGDSVK | GPAAGLFDS gave 2.5 mM (1 of 3 replicates; controls 5 of 9). Variant GFTLNSYGIN | VIYSDGRRTIYGDSVK | GWAAGTFDS showed 1.1 µM (1 of 3 replicates; controls 3 of 9). Variant GFCLNSYGNS | VIYSDGRRTFYGDSVK | GHAAGTFDS gave nd (0 of 3 replicates; controls 2 of 9). Variant GFTLNSYGIS | VIKSDGRRTFYGDSVK | GHAAGTFDS showed nd (0 of 3 replicates; controls 0 of 9). With GATLNSYGIS | VIYSDGRRTFYGDSVS | GTAAGTFDS the result was 140 nM (3 of 3 replicates; controls 1 of 9).

The closing 4 entries, repeated:

{"CDR-H1": "GFTLNSYGIN", "CDR-H2": "VIYSDGRRTIYGDSVK", "CDR-H3": "GWAAGTFDS", "Kd (apparent)": "1.1 µM", "seen in": "1 of 3", "control signals": "3 of 9"}
{"CDR-H1": "GFCLNSYGNS", "CDR-H2": "VIYSDGRRTFYGDSVK", "CDR-H3": "GHAAGTFDS", "Kd (apparent)": "nd", "seen in": "0 of 3", "control signals": "2 of 9"}
{"CDR-H1": "GFTLNSYGIS", "CDR-H2": "VIKSDGRRTFYGDSVK", "CDR-H3": "GHAAGTFDS", "Kd (apparent)": "nd", "seen in": "0 of 3", "control signals": "0 of 9"}
{"CDR-H1": "GATLNSYGIS", "CDR-H2": "VIYSDGRRTFYGDSVS", "CDR-H3": "GTAAGTFDS", "Kd (apparent)": "140 nM", "seen in": "3 of 3", "control signals": "1 of 9"}

Source: Engelhart et al. 2022 (doi:10.1038/s41597-022-01779-4), MIT Lincoln Laboratory and A-Alpha Bio; data file from the FLAb repository.